The entries are a selection whose mix differs from that of the whole data set. Active and inactive are the calls of the source. No stated cut-off is given here; in the data, active means inhibition above about 60%; inactive means the rest.
What follows are compounds tested against Phosphoethanolamine/phosphocholine phosphatase (Homo sapiens) (UniProt Q8TCT1) (assay: PubChem AID 1565). Details: recombinant PHOSPHO1, absorbance phosphatase assay; at 13.3 µM; active compounds read high.

The chains behind the UniProt entries cited, without tags or fusion partners. Where a name states a change or a piece, a line headed by the entry shows the natural chain unless it says otherwise.
UniProt Q8TCT1: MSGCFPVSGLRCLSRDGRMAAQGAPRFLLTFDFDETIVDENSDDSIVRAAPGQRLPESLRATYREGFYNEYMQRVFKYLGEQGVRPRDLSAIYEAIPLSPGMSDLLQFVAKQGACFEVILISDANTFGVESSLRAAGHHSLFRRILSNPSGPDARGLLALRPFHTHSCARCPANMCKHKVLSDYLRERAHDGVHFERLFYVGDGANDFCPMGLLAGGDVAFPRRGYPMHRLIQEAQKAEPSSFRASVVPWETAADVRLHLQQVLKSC

| SMILES | inhibition |
| --- | --- |
| CCCCOc1ccc(C(=O)NCC2(N3CCCCC3)CCCCC2)cc1OC | inactive: 22.5% |
| Cc1cc(SC(NC(=O)c2ccccc2)C(Cl)(Cl)Cl)nc(C(C)C)n1 (stereo unspecified) | inactive: 13.3% |
| CCOC(=O)Nc1ccc([As](=O)(O)O)c(O)c1 | inactive: -9.7% |
| O=[N+]([O-])c1ccc(Nc2ccc(Oc3ccc([N+](=O)[O-])cc3[N+](=O)[O-])cc2)c([N+](=O)[O-])c1 | inactive: 2.5% |
| Cc1cc(SC(NC=O)C(Cl)(Cl)Cl)ncn1 (stereo unspecified) | inactive: 20.1% |
| O=P(Nc1ccccn1)(c1cccc2ccccc12)c1cccc2ccccc12 | inactive: 11.9% |
| CCOC(=O)Nc1cccc([As](=O)(O)O)c1 | inactive: 38.6% |
| O=C(COc1ccccc1)OC1CN2CCC1CC2 (stereo unspecified) | inactive: -0.3% |
| O=C(Nc1ccncc1[N+](=O)[O-])c1ccc([N+](=O)[O-])cc1[N+](=O)[O-] | inactive: 23.3% |
| COP1(=S)c2c(C)nn(CCC#N)c2N=C(c2ccc(F)cc2)N1C (stereo unspecified) | inactive: 48.3% |
| CCC(C)N(CC(C)C)C(=S)SC(NC(C)=O)C(Cl)(Cl)Cl (stereo unspecified) | inactive: 0.5% |
| CCOC(=O)c1ccc(NC(=O)C(C)(CCl)SC)cc1 (stereo unspecified) | inactive: 36.2% |
| O=C(OC1CN2CCC1CC2)c1cccc([N+](=O)[O-])c1 (stereo unspecified) | inactive: 32.7% |
| COc1ccc2nc(NP(=O)(c3ccccc3)c3ccccc3)sc2c1 | inactive: 57.8% |
| COc1cc(I)ccc1[As](=O)(O)O | inactive: 3.1% |
| O=C(OC1CN2CCC1CC2)C12CC3CC(CC(C3)C1)C2 (stereo unspecified) | inactive: 4.7% |
| Cc1cc(=O)[nH]c(N[N+](=O)[O-])n1 | inactive: -15.7% |
| Cc1c2c(nc3ccccc13)SC(C(Cl)Cl)C2 (stereo unspecified) | inactive: -75.3% |
| COc1ccc(N/C(=N/P(=O)(N2CCOCC2)N2CCOCC2)N2CCOCC2)cc1 | inactive: -9.7% |
| Cc1ccc2nc3c(c(C)c2c1)CC(C(Cl)Cl)S3 (stereo unspecified) | inactive: 14.1% |
| Cc1ccc(OP(=O)(Nc2ccc([N+](=O)[O-])cn2)Oc2ccc(C)cc2)cc1 | inactive: 31.6% |
| C[As](=O)(O)c1cccc(C(=O)O)c1 | inactive: 38.6% |

| SMILES | inhibition |
| --- | --- |
| O=[As](O)(c1ccc(O)cc1)c1ccccc1O | inactive: 11.7% |
| CCN(CC)C(=S)SC(NC=O)C(Cl)(Cl)Cl (stereo unspecified) | inactive: 54.9% |
| CC(C)NC(=O)NP(=O)(Oc1ccccc1)Oc1ccccc1 | inactive: 19.2% |
| O=[N+]([O-])c1cc([N+](=O)[O-])c(-c2ccn[nH]2)s1 | inactive: -13% |
| CC(C)c1ccc(OP(=O)(Nc2ccccn2)Oc2ccccc2F)cc1 (stereo unspecified) | inactive: 11.9% |
| ClCCSc1nnc(-c2cccnc2)o1 | inactive: -8% |
| O=C(O)COc1ccc([As](=O)(O)O)cc1[N+](=O)[O-] | inactive: 13.4% |
| Nc1ccccc1[As](=O)(O)c1ccccc1 | inactive: 33.1% |
| CS(=O)(=O)c1cc([N+](=O)[O-])c2no[n+]([O-])c2c1 | active: 85% |
| CCOP1(=S)c2c(C)nn(CCC#N)c2N=C(c2ccccc2F)N1C (stereo unspecified) | inactive: 38% |
| O=P(Nc1nccs1)(c1ccccc1)c1nc2ccccc2s1 (stereo unspecified) | active: 72.7% |
| O=P(Nc1nccs1)(Oc1ccccc1)Oc1ccccc1 | inactive: -10% |
| O=[N+]([O-])c1ccc2c(c1)nnn2O | inactive: 7.1% |
| CN(C(=O)Cc1ccccc1)[C@@H]1CC[C@]2(CCCO2)C[C@H]1N1CCCC1 | inactive: 8.5% |
| CCOP1(=S)c2c(C)nn(CCC#N)c2N=C(c2ccc(F)cc2)N1C (stereo unspecified) | inactive: 14.8% |
| NC(=O)Nc1ccc([As](=O)(O)O)cc1 | inactive: 35.3% |
| O=[As](O)(c1cccc(O)c1)c1cccc(O)c1 | inactive: -5.9% |
| Cc1cccc(OCC(=O)OC2CN3CCC2CC3)c1 (stereo unspecified) | inactive: -9.3% |
| COc1cc(C(=O)NCC2(N3CCOCC3)CCCCC2)cc(Cl)c1OC(C)C | inactive: -20.9% |
| O=[As](O)(O)c1cccnc1 | inactive: 7.4% |
| CS(=O)(=O)c1ccc(Cl)c(NC(=O)COC(=O)C(O)(c2ccccc2)c2ccccc2)c1 | inactive: 37% |
| O=C(OC1CN2CCC1CC2)c1ccc(Cl)cc1 (stereo unspecified) | inactive: 12.3% |

| SMILES | inhibition |
| --- | --- |
| COc1cc(C2NCCC3(OCCO3)C2(C)C)cc(OC)c1OC (stereo unspecified) | inactive: -2.8% |
| CCOP(=O)(Nc1cccc2ccccc12)OCC | inactive: -8.2% |
| CCCOP(=S)(Nc1nc(N)cc(=O)[nH]1)OCCC | inactive: -16.8% |
| Nc1cccc2c([As](=O)(O)O)cccc12 | inactive: 5.2% |
| Cc1ccc(NCCc2c([N+](=O)[O-])cc([N+](=O)[O-])cc2[N+](=O)[O-])cc1 | inactive: -14.7% |
| Clc1n[nH]nc1-c1nn[nH][15n]1 | inactive: 23.1% |
| CC(C)(C)C(=O)NC(Sc1ncccn1)C(Cl)(Cl)Cl (stereo unspecified) | inactive: 12.2% |
| CCOP(=O)(Nc1ccc(C)cn1)OCC | active: 62.2% |
| CCC1=CC2Cc3nc4ccc(Cl)cc4c(N)c3C(C1)C2 (stereo unspecified) | inactive: 44.4% |
| O=P1(Nc2ccccn2)COc2ccccc2OC1 | inactive: 6.4% |
| CCOP(=O)(NC(=NC(C)c1ccccc1)NC(C)c1ccccc1)OCC (stereo unspecified) | inactive: 22% |
| O=[As](O)(c1ccccc1Br)c1ccccc1Br | inactive: 2.8% |
| CN(C(=O)Cc1ccc(Cl)c(Cl)c1)[C@@H]1CCCC[C@H]1N1CCCC1 | inactive: 35.7% |
| CC(C)/C=N\N=C(\N)N[N+](=O)[O-] | active: 64.7% |
| O=C(/C=C/c1ccccc1)OC1CN2CCC1CC2 (stereo unspecified) | inactive: 3.8% |
| CN(C)C1(CNC(=O)c2ccc(S(C)(=O)=O)cc2)CCCCC1 | inactive: 36.8% |
| Cc1nn(-c2ccccc2)c2c1P(=O)(N1CCOCC1)N(C)C(c1ccccc1)=N2 (stereo unspecified) | inactive: 24.2% |
| CC1CCC(C(C)C)C(OP(=O)(Nc2ccccn2)c2ccccc2)C1 (stereo unspecified) | inactive: 0.1% |
| O=P1(Nc2ccc(Br)cn2)COc2ccccc2OC1 | inactive: 1.8% |
| O=[As](O)(c1cccs1)c1cccs1 | inactive: 19.9% |
| Cc1ccc(OCC(=O)OC2CN3CCC2CC3)cc1 (stereo unspecified) | inactive: -25.8% |
| Nc1cccc([As](=O)(O)c2ccccc2)c1 | inactive: 3.1% |
